Species on record: Homo sapiens
Assay: Selectivity ratio of Ki for human delta opioid receptor to Ki for human kappa opioid receptor

Compound `Oc1ccc2c(c1)[C@@]13CCCC[C@H]1[C@@H](C2)N(CC1CCC1)CC3` has a Ratio Ki of 75.
